Laboratory results: patent publication US20250154138A1, “Small Molecule IL-17A Modulators” (BeiGene, Ltd., priority 2022, published 2025)
Where two headings read alike, the source gives them in different places.

Protein sequences, listed by entry. Tags and fused reporters are not part of them. Residues count along the entry.
UniProt Q16552, 24-155 limits assumed: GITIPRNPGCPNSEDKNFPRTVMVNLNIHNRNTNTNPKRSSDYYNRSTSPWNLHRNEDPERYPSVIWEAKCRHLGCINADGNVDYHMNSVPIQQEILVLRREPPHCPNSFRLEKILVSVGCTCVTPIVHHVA

Key:
[1] = molecular target: human IL-17A / human IL-17RA (Homo sapiens (Human), UniProt Q16552); experiment: Human IL-17A biochemical assay (HTRF, blocking of IL-17A binding to IL-17RA)
[2] = tested on: IL-17-induced GROα secretion from HT-29 cells; experiment: GROα release assay in human colorectal adenocarcinoma epithelial cell (HT-29, ELISA)
Description: The purpose of the assay is to test the ability of a compound to neutralize IL17A proteins. IL17 can stimulate human epithelial cells to secrete GROα. The ability of one compound of the invention to neutralize IL-17-induced GROα secretion from the human colorectal adenocarcinoma epithelia cell line HT-29 is tested in this assay.
HT-29 cells (human colorectal adenocarcinoma epithelia cell, ATCC) were stimulated with IL-17A (Novoprotein, #C774) in final concentration of 10 ng/mL. The resultant GROα response was measured using an ELISA kit from Invitrogen (#88-52122). HT-29 cells were cultured in complete medium (McCoy's 5A medium+10% FBS) and maintained in a tissue culture flask using standard techniques. On day 1, detached the cell by using TrypLE (Gibco, #12605036) and used the complete medium to neutralize. The cells were centrifuged at 11,00 rmp for 4 minutes. Re-suspended the cell pellet in complete medium and seeded 50,000 HT-29 cells into the 96-well assay plate (Corning, 3599) at 135 μL complete medium per well. The cells were incubated for overnight, at 37° C./5% CO2 to adherent the plate. On day 2, prepared a 4-fold serial dilution of the tested compound in DMSO. The highest concentration of the compound was 10 μM. Transferred 2 μL of the serial diluted compound from the serial dilution plate into the reagent plate which was contained 198 μL complete medium with 100 ng/mL IL-17A per well. The compounds were incubated with the IL-17A for 15 minutes. 15 μL mixtures from reagent plate were transferred into the cell assay plate. Incubated the plate at 37° C./5% CO2 for 48 hours. After the incubation, on day 4, GROα level were measured with GROα ELISA as the manufacturer's instructions. 50 μL supernatant was collected form the assay plate to ELISA plate. ELISA plate was read at 450 nm on a microplate reader and compared to a standard calibration curve.
Data were processed using GraphPad Prism. GROα concentration was calculated from the standard curve. IC50 was determined using the equation log concentration (inhibitor) against response and fitted to four parameters.

Structure (SMILES) | IC50 ([1]; read-out: Biochemical assay IL-17A/IL-17RA IC50, 0.4 nM IL-17A, 0.3 nM IL-17RA, max compound concentration 10 uM, listed as 290 isomer 1) [nM] | IC50 ([1]; read-out: Biochemical assay IL-17A/IL-17RA IC50, 0.4 nM IL-17A, 0.3 nM IL-17RA, max compound concentration 10 uM, listed as 290 isomer 2) [nM] | IC50 ([2]; read-out: Cellular assay HT29 cell/CXCL1 IC50, 10 ng/mL IL-17A, 48 hours, highest concentration 10 μM, listed as 290 isomer 1) [nM] | IC50 ([2]; read-out: Cellular assay HT29 cell/CXCL1 IC50, 10 ng/mL IL-17A, 48 hours, highest concentration 10 μM, listed as 290 isomer 2) [nM] | IC50 ([1]; read-out: Biochemical assay IL-17A/IL-17RA IC50, 0.4 nM IL-17A, 0.3 nM IL-17RA, max compound concentration 10 uM, listed as 292 isomer 1) [nM] | IC50 ([1]; read-out: Biochemical assay IL-17A/IL-17RA IC50, 0.4 nM IL-17A, 0.3 nM IL-17RA, max compound concentration 10 uM, listed as 292 isomer 2) [nM] | IC50 ([2]; read-out: Cellular assay HT29 cell/CXCL1 IC50, 10 ng/mL IL-17A, 48 hours, highest concentration 10 μM, listed as 292 isomer 1) [nM] | IC50 ([2]; read-out: Cellular assay HT29 cell/CXCL1 IC50, 10 ng/mL IL-17A, 48 hours, highest concentration 10 μM, listed as 292 isomer 2) [nM]
CC(C)n1nccc1C(=O)N[C@H](C(=O)Nc1ccc2c(c1)OC(C(C1CC1)N1C[C@@H](C(F)(F)F)NC1=O)C2)C(C1CC1)C1CC1 (single isomer, unassigned) | 18.6 | 641 | 60.3 | 271 | – | – | – | –
CNC(C(F)(F)F)C1(N2C[C@@H](C(C)C)NC2=O)Cc2ccc(NC(=O)[C@@H](NC(=O)c3nonc3C)C(C3CC3)C3CC3)cc2C1 (single isomer, unassigned) | – | – | – | – | 287 | 213 | 206 | 496
